{"source": "patent US11583575B2", "about": "“MHC-bound peptide arrays and methods of use thereof” (Roche Sequencing Solutions, Inc., priority 2016, dated 2023)", "key": {"[1]": {"biological_target": "MHCI (Homo sapiens, UniProt P04439, D140Y/D185E/D98H/E176V/E277Q/G131W/G231S/I119V/I121R/I166T/I218V/N151K/N90K/P208A/P217A/Q86G/Q94H/R138H/R169H)", "experiment": "On-array peptide-MHCI complex assembly of WT1 9-mer peptides, detected by labeled conformational antibody", "type": "binding", "details": "440 peptides plotted, FIG. 2-5", "experimental": "Typically, 630 μl of 10 mM Tris-HCl pH8.5 was mixed with 20 μl of 10% BSA in 20 mM Tris-HCl pH 7.8, 300 μg of 30 mg/ml solubilized b2m and 600 μg of 15-40 mg/ml solubilized alpha-chain in the indicated order at room temperature (RT). The control sample contained no b2m protein. Mixed samples were incubated at 4° C. overnight and centrifuged at 12,000×g for 4 min to remove precipitate. The supernatant was concentrated with an AmiconUltra 10K filter (Millipore) using two sample loads of approximately 400 μl and centrifuged at 12,000×g for 2 min each. The sample buffer was replaced with 10 mM Tris pH8.5 by addition of 350 μl 10 mM Tris-HCl pH 8.8 to the filter retained volume and concentrated by centrifugation at 12,000×g for 4 min. The buffer replacement procedure was repeated two more times using 350 μl 10 mM Tris-HCl pH 8.5 each time. […]\nFIG. 2 provides a plot depicting a plurality of WT1 peptides, each 9 amino acids in length and each having a unique sequence along the wild type sequence of the WT1 protein, organized into quadrants based on either their signal intensity when bound to MHCI on a surface of the disclosure and detected by a labeled antibody, or their predicted binding affinity, as estimated by NetMHC 3.4. […]"}, "[2]": {"test_system": "ESK1 antibody", "experiment": "ESK1 antibody binding specificity to peptide-MHC assemblies for WT1 9mer peptides", "details": "FIG. 7", "excerpt": "Because the array of peptides on the surface is spatially-ordered, the sequence of every peptide is immediately known. Each amino acid of the 9 amino acid peptide was substituted for each of the 20 possible amino acids to identify those positions within this peptide that are essential for forming a proper peptide-MHCI complex. […] The amino acids A, F, I, L, M, V, W and P are nonpolar amino acids. The amino acids G, S, Y, C, Q, T, N are polar amino acids. The amino acids R, K and H are basic amino acids. The amino acids D and E are acidic amino acids."}}}
{"sequence": "RMFPNAPYL [WT1 peptide126]", "values": [{"measurement": "binding to MHCI on the surface (signal intensity, labeled antibody)", "setting": "[1]", "value": "demonstrated binding capacity to MHCI"}, {"measurement": "ESK1 antibody binding specificity (relative fluorescence intensity)", "setting": "[2]", "value": "specific target"}]}
